Patent US5300512A, “Benzimidazole compounds” (G. D. Searle & Co., priority 1992, dated 1994)

By UniProt entry, the sequences of proteins in these tests, tags left out. Where a name states a change or a piece, a line headed by the entry shows the natural chain unless it says otherwise. Residues count along the entry.
UniProt P35563, 24-483: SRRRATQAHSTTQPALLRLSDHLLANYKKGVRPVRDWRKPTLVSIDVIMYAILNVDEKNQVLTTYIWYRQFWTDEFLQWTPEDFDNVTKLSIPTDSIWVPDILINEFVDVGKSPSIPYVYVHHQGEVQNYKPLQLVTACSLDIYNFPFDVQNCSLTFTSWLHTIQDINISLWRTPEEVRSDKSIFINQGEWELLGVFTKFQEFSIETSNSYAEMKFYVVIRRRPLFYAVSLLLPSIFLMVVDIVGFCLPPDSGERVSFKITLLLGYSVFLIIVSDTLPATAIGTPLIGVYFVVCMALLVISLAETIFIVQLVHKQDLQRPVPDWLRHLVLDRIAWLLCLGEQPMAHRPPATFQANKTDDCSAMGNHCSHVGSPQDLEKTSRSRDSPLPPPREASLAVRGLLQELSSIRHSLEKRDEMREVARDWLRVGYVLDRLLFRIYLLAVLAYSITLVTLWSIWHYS
UniProt Q62758: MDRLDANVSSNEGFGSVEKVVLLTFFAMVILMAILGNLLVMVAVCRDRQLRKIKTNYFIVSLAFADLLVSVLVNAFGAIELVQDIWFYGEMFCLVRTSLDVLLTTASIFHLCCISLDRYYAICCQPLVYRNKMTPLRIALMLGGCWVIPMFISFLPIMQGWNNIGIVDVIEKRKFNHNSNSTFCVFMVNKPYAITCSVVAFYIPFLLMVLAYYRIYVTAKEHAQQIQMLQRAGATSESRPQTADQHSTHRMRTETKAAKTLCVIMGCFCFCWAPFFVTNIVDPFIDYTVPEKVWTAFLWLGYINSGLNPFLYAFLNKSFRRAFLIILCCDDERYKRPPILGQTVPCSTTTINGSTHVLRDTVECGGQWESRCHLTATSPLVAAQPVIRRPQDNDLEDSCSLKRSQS

How the values were obtained:
5-HT3 receptor = molecular target: T1, 5-HT3 receptor (Rattus norvegicus, UniProt P35563); assay: [3H]-GR65630 radioligand binding to 5-HT3 receptor, rat brain cortex membranes; conditions: [3H]-GR65630 bound (0.2 nM)
T1 construct: Brain cortices were obtained from male rats and a membrane fraction prepared by standard techniques; from tissue; host or cells: rat brain cortex, membrane fraction
Experimental: (§1) 5-HT4 agonist activity was determined in the in vitro rat tunica muscularis mucosae (TMM) assay. (Baxter et al., Naunyn Schmied Arch. Pharmacol, 1991, 343, 439). The 5-HT4 agonist or antagonist and/or 5-HT3 antagonist activity of the compounds of the invention can be determined by these assays described herein, without undue experimentation.
GR65630 binds to the 5-HT3 receptor. Brain cortices were obtained from male rats and a membrane fraction prepared by standard techniques. 0.04 mg of membrane prep was incubated with 0.2 nM […] for 60 minutes at 22° C. […] Membranes were filtered and washed 3 times and the filters were counted to determine [3H]-GR65630 specifically bound. (Kilpatrick G. J., Jones B. J. and Tyers M. B. Identification and distribution of 5-HT3 receptors in rat brain using radioligand binding. Nature, 330: 746-748, 1987).

5-HT4 receptor = molecular target: T2, 5-HT4 receptor (Rattus norvegicus, UniProt Q62758); assay: In vitro functional assay for serotonin 5-HT4 agonism: rat TMM (relaxation of carbachol-contracted tunica muscularis mucosae); type: biochemical
T2 construct: The inner tunica muscularis mucosa was mounted under 0.2-0.3 g of tension in a tissue bath; from tissue; host or cells: rat intrathoracic esophagus, tunica muscularis mucosae
Experimental: as §1
Agonist activity was determined utilizing relaxation of carbachol-contracted rat tunica muscularis mucosae. One 2 cm segment of intrathoracic esophagus proximal to the diaphragm was removed from male rats, weighing approximately 300 gm, and the outer muscle layers removed. The inner tunica muscularis mucosa was mounted under 0.2-0.3 g of tension in a tissue bath containing oxygenated Tyrode's solution at 37° C. […] Following a 30 min equilibrium period, tissues were isometrically contracted with carbachol (3 μM) to obtain a tonic contraction. A stable plateau was obtained within 20 min when test compound was added cumulatively to relax the muscle strip. EC50 values were obtained for each agonist in tissues from 5 rats.

## NCCc1c[nH]c2ccc(O)cc12 [Example 5-HT, 5-hydroxytryptamine]
5-HT3 receptor
  Hill Coefficient: 1.0
5-HT4 receptor
  pEC50: 8.05

pEC50: −log10 of the molar value.
